Measured values as given in ChEMBL document CHEMBL4321853, “Multitarget CFTR Modulators Endowed with Multiple Beneficial Side Effects for Cystic Fibrosis Patients: Toward a Simplified Therapeutic Approach †” (J Med Chem, 2019).

Chains of the proteins cited; added tags and fusions are not shown. A line that says so, or that is headed by a name, gives the form on record, which may keep a tag or linker.
Cystic fibrosis transmembrane conductance regulator (Homo sapiens), P13569, UniProt P13569, as listed by the source: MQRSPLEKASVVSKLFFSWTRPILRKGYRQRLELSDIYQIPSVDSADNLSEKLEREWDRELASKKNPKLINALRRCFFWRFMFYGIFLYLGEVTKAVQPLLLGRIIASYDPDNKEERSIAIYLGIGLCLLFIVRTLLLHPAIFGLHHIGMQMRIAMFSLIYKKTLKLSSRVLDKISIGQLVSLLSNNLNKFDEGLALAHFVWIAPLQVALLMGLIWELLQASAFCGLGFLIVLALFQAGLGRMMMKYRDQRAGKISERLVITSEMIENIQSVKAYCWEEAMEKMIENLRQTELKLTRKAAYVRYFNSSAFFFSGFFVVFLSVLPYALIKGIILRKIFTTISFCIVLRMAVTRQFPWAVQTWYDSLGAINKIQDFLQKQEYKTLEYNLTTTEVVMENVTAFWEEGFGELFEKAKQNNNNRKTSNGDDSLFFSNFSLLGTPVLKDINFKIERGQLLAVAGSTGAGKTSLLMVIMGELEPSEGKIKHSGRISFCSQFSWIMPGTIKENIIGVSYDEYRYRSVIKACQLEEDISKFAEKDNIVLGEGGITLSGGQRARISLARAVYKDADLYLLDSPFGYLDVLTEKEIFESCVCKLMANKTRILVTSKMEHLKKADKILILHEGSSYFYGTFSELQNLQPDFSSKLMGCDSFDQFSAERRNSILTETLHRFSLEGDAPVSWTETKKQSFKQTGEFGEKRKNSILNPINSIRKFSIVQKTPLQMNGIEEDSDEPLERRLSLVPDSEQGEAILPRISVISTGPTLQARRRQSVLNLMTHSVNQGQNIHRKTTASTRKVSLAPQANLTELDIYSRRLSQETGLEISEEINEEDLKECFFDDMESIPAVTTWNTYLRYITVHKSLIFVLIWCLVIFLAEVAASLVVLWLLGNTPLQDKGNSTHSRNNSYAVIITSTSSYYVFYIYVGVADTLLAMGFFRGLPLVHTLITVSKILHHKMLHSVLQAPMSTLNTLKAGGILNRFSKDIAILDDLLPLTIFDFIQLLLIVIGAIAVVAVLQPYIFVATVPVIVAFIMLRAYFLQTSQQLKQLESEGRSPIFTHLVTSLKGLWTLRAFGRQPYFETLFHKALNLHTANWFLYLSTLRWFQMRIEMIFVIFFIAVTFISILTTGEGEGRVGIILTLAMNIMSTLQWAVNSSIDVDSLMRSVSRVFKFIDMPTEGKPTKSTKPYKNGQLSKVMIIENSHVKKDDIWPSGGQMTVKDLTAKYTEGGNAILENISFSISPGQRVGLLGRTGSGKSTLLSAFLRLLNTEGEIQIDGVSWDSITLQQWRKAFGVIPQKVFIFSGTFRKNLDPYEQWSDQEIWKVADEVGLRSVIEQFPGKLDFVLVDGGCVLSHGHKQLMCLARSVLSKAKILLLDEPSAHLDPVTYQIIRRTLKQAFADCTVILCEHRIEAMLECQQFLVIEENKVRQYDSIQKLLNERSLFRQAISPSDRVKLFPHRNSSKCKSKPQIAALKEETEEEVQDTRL

System: Cystic fibrosis transmembrane conductance regulator (Homo sapiens), P13569 [F508del]
Test: Corrector activity at CFTR F508del mutant (unknown origin) transfected in human HEK293 membrane cells assessed as increase in CFTR level at 3 uM incubated for 24 hrs in presence of VX-809 by using pHTomato probe based fluorescence inverted microscopic analysis relative to VX-809 alone
Assay type: cell-based

SMILES: CC(=O)c1cccc(N(CCO)c2nc(-c3sc(NC(=O)C(C)(C)C)nc3C)cs2)c1
- fold change (FC): 3
